Where “and” joins values, the source holds several entries; their conditions need not be identical. Equal values may be shown once. Read-outs that look alike come from different tables or passages of the source. *1 amine or outer side, *2 acyl side, *3 side chain or, on linkers, in order; H or OH if unused. Where a SMILES comes first, the peptide text is derived from it. Bridges are numbered along the chain shown (N, C = ends). Roman numbers before positions name the chains, in order. [ ]: non-standard residue; d: D form. X3 = CCCCCCCCCCCCCCCCCC(=O)NCCCC[C@H](NC(=O)COCCOCCNC(=O)COCCOCCn1cc(COCCOCCNc2nc(CC[*:1])cc(CC[*:2])n2)nn1)C(=O)NCCOCCOCC(=O)NCCOCCOCC(N)=O; X2 = O=C(CCCCn1cc(COCCOCCNc2nc(CC[*:1])cc(CC[*:2])n2)nn1)[*:3]; X4 = CCOC(=O)CN(C)c1nc(CC[*:1])cc(CC[*:2])n1
Columns and labels:
[1] = biological target: T1, interaction between the human Keap1 Kelch domain and an Nrf2-ETGE peptide (Homo sapiens, UniProt Q14145); assay: Keap1-Nrf2 TR-FRET (HTRF) assay; type: binding
T1 construct: 1nM purified human Keap1 Kelch domain (A321-T609) fused with N-terminal 6x His-tag; made in house
Excerpt: (§1) We based the design of our Nrf2-like cyclic peptides around the amino acid sequence of the ETGE motif (namely 12-mer ^73QLQLDEETGEF^84L) and SAR studies reported in the literature.[9,10,12,14] The […] motif is known to adopt a beta-turn conformation upon binding to Keap1. Residues Q73-Q75 and L85 stabilise the bound conformation, L76-D77 and E79-G81 bind deep into the pocket with E79 and E82 forming electrostatic interactions with Keap1 and D77 and T80 stabilising the beta-turn via H-bonds with E78 not contributing to the binding. In particular, our peptides aim to retain the beta-turn conformation and featured the E78P mutation which has been reported to improve the binding affinity.[9] […] The ability of the cyclic peptides to bind to the Kelch domain of Keap1 was evaluated using surface plasma resonance (SPR), where the Kelch domain is immobilised onto a SPR sensor chip. Additionally, we assessed the ability of the peptides to inhibit the PPI between Nrf2 and the Kelch domain of Keap1 using a time-resolved FRET (TR-FRET) assay. Here, the IC50 for inhibition of the interaction between the human Keap1 Kelch domain and an Nrf2-ETGE peptide is measured.
(§2) Surface Plasmon Resonance (SPR)
(§3) Peptide affinities to the Kelch domain of Keap1 is determined in a direct binding assay using 8K surface plasmon resonance (SPR) biosensor (Cytiva) at 20°C. Immobilization of Keap1 Kelch domain on a CM5 sensor chip (Cytiva) is performed using standard amine coupling procedure. The surface is washed with 10mM NaOH, 1M NaCl before activated with EDC/NHS (Cytiva), followed by immobilization of human Keap1 Kelch domain (A321-T609) fused with N-terminal 6x His-tag7 (in 10 mM MES, pH=6.4).
(§4) Finally, the surface is deactivated by Ethanolamine. Immobilization levels are typically 5000-6000 RU.
(§5) The reference spot is treated as described, omitting the injection of Keap1. Compound concentration series are injected over the immobilized protein in increasing concentrations using single cycle kinetics (SCK) in running buffer (10 mM HEPES, 150 mM NaCl, 0.05% Tween20, 1 mM TCEP, pH 7.4). A 1:1 Langmuir interaction model is fitted to the experimental traces, enabling determination of kon, koff and […]
(§6) In the time-resolved Förster resonance energy transfer (TR-FRET) assay8 the IC50 of inhibitors which are able to inhibit the interaction between the Keap1-Kelch domain and a Nrf2 derived ETGE peptide are determined. The TR-FRET is measured between a Tb-labelled mAb (Anti—6-His, Tb cryptate Gold, CisBio 61H12TLB) that binds to Keap 1 Kelch domain and d2-labelled SA-biotin-peptide.
(§7) The assay was performed in 384-well white low-volume, medium binding plates (Greiner Bio One, Austria) in 20 mM HEPES pH 7.5, 150 mM NaCl, 2 mM GSH (Sigma-Aldrich, USA),1mM EDTA (Sigma-Aldrich, USA), and 0.01% Pluronic F127 (MilliporeSigma, USA), with a final reaction volume of 10 µL.
(§8) To determine the ability of synthesized peptide to inhibit PPI between the Keap1 Kelch domain and Nrf2, 1nM purified human Keap1 Kelch domain (A321-T609) fused with N-terminal 6x His-tag, 5 nM biotinylated Nrf2 peptide ([…], Genescript, USA), d2-labeled streptavidin (Revvity, USA), and […] anti-His monoclonal antibody tagged with terbium cryptate (Revvity, USA), were incubated in the presence of varying concentrations of investigated peptides for 3 h at room […]
(§9) 7 Li X, Zhang D, Hannink M, Beamer LJ. Crystallization and initial crystallographic analysis of the Kelch domain from human Keap1. Acta
(§10) 8 S. Lee, D. Ali Abed, L. J. Beamer, L. Hu, Development of a Homogeneous Time-Resolved Fluorescence Resonance Energy Transfer (TR-
FRET) Assay for the Inhibition of Keap1–Nrf2 Protein–Protein Interaction, SLAS Discovery, 26, 1, 2021, Pages 100-112, ISSN 2472- […]
Following the incubation, the PHERAstar FSX […] microplate reader was used to measure the acceptor and donor emissions at 665 nm and 620 nm, respectively. The acceptor/donor ratio was used to calculate relative energy transfer. […]

Sequences of proteins named here, by UniProt entry; tags and fusion partners are left off. Residues count along the entry.
UniProt Q14145, 321-609: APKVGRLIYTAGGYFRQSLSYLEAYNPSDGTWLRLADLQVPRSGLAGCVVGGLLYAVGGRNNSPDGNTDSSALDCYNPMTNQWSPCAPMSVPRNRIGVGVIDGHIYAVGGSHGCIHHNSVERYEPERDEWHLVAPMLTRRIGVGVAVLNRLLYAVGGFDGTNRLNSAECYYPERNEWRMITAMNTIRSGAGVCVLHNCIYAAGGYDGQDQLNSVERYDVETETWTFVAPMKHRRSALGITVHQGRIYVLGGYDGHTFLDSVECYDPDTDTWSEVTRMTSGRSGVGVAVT
UniProt Q14145, whole entry: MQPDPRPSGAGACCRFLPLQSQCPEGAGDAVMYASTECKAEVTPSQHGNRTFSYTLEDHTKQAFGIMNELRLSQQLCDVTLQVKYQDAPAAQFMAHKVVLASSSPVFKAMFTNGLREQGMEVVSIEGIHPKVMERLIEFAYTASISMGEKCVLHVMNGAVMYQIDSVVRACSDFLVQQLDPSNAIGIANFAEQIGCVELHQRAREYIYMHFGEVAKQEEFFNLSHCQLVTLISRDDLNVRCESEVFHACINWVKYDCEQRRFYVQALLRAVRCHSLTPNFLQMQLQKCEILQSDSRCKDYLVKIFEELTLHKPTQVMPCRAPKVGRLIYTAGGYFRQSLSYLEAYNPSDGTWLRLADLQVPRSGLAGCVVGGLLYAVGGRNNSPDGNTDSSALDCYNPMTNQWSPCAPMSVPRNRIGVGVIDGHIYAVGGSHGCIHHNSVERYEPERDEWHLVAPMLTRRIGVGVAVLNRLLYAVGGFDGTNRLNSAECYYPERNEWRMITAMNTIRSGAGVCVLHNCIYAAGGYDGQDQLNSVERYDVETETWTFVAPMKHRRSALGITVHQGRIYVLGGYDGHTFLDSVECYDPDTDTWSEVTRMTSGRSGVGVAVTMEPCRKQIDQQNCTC

[2] = biological target: T2, human Keap1 Kelch domain (A321-T609) (Homo sapiens, UniProt Q14145); assay: Surface plasmon resonance (SPR) direct binding assay, immobilised Keap1 Kelch domain
T2 construct: human Keap1 Kelch domain (A321-T609) fused with N-terminal 6x His-tag; 6xHis (N); made in house
Excerpt: as §1, §2, §3, §4, §5, §6, §7, §8, §9, §10
FRET) Assay for the Inhibition of Keap1–Nrf2 Protein–Protein Interaction, SLAS Discovery, 26, 1, 2021, Pages 100-112, ISSN 2472-

[3] = biological target: NQO1 gene expression in BEAS-2B cells (Homo sapiens); assay: BEAS-2B NQO1 assay (qPCR of NQO1 mRNA); type: cell-based; conditions: EC50 of NQO1 mRNA upregulation, 24 h, medium without FBS, read-out: BEAS2b
Excerpt: The effect of peptides on Nrf2-dependent gene expression was investigated in BEAS-2B cells, where we determined the upregulation of the mRNA of NAD(P)H quinone dehydrogenase (NQO1) by qPCR. The expression of NQO1 is Nrf2-dependent and it is one of the two major quinone reductases, which play a crucial role in protecting cells from oxidative stress.[40] ^§§ In the context of this study we chose BEAS-2B cells as a representative model for epithelial cells. The presence of serum has been reported to affect BEAS-2B cell phenotype. Specifically, exposure of BEAS-2B to FBS has been associated with squamous differentiation, alteration in cytokine secretion and response to toxicants.[42–44] […] The lack of activity of the peptides is unsurprising considering the overall negative net charge, which will obstruct their cellular uptake. In order to improve the cellular uptake, we took of advantage of the 2C-PS moiety, which not only allows the easy synthesis of a variety of macrocycles of different ring sizes, but also permits the facile introduction of a diverse set of moieties, which could enhance cell permeability. We pursued a diverse set of strategies to make the Keap1 peptide more cell permeable, namely: masking of the acidic amino acids with methyl esters, introduction of polyarginine peptides, GWWG-polyarginine peptides or a long-chain fatty acid tag onto the staple, as well as peptide shortening and a combination of these. The rationale behind these strategies is explained herein, and details of their synthesis can be found in the ESI. ^†
Cellular Biology Experimental
(Thermo Fisher Scientific, USA).
calculated using QunatStudio 7 software.

[4] = Table 1, single cycle kinetics, 1:1 Langmuir model
[5] = Table 2, IC50, minimum of three repeats, read-out: TR-FRET
[6] = Table 2, geometric mean ± sd of at least two independent repeats

Row | Structure (SMILES) | IC50 ([1]; Table 1, geometric mean ± sd of at least 3 independent repeats unless stated, read-out: TR-FRET IC50) | Kd ([2]; Table 1, geometric mean ± sd of at least 3 independent repeats unless stated, 20°C) | koff [2, 4] | kon [2, 4] | koff ([2]; Table 2) | kon ([2]; Table 2) | IC50 [1, 5] | Kd [2, 6] | EC50 [3]
1 | CCOC(=O)CN(C)c1nc2cc(n1)CCSC[C@@H](C(=O)N[C@@H](CC(C)C)C(N)=O)NC(=O)[C@H](CCC(=O)O)NC(=O)CNC(=O)[C@H]([C@@H](C)O)NC(=O)[C@H](CCC(=O)O)NC(=O)[C@@H]1CCCN1C(=O)[C@H](CC(=O)O)NC(=O)[C@H](CC(C)C)NC(=O)[C@H](CCC(N)=O)NC(=O)[C@H](CC(C)C)NC(=O)[C@@H](NC(C)=O)CSCC2 [Peptide P3-F] (Ac-CLQLDPETGECL-NH2; linker 1-11 via X4) | 2 nM and 1.9 nM | 14 ± 1.4 nM | 0.0032 s⁻¹ | 240000 M⁻¹ s⁻¹ | – | – | – | – | –
2 | CC(=O)N[C@H]1CSCCc2cc(nc(NCCOCCOCc3cn(CCCCC(=O)NCC(=O)N[C@@H](Cc4c[nH]c5ccccc45)C(=O)N[C@@H](Cc4c[nH]c5ccccc45)C(=O)NCC(=O)N[C@H](CCCNC(=N)N)C(=O)N[C@H](CCCNC(=N)N)C(=O)N[C@H](CCCNC(=N)N)C(N)=O)nn3)n2)CCSC[C@@H](C(=O)N[C@@H](CC(C)C)C(N)=O)NC(=O)[C@H](CCC(=O)O)NC(=O)CNC(=O)[C@H]([C@@H](C)O)NC(=O)[C@H](CCC(=O)O)NC(=O)[C@@H]2CCCN2C(=O)[C@H](CC(=O)O)NC(=O)[C@H](CC(C)C)NC(=O)[C@H](CCC(N)=O)NC(=O)[C@H](CC(C)C)NC1=O [Peptide P3-G] (I: Ac-CLQLDPETGECL-NH2 / II: GWWG[dR][dR][dR]-NH2; linker I:1-I:11-II:N via X2) | – | – | – | – | 0.00072 s⁻¹ | 340000 M⁻¹ s⁻¹ | – | – | –
3 | CCCCCCCCCCCCCCCCCC(=O)NCCCC[C@H](NC(=O)COCCOCCNC(=O)COCCOCCn1cc(COCCOCCNc2nc3cc(n2)CCSC[C@@H](C(=O)N[C@@H](CC(C)C)C(N)=O)NC(=O)[C@H](CCC(=O)O)NC(=O)CNC(=O)[C@H]([C@@H](C)O)NC(=O)[C@H](CCC(=O)O)NC(=O)[C@@H]2CCCN2C(=O)[C@H](CC(=O)O)NC(=O)[C@H](CC(C)C)NC(=O)[C@H](CCC(N)=O)NC(=O)[C@H](CC(C)C)NC(=O)[C@@H](NC(C)=O)CSCC3)nn1)C(=O)NCCOCCOCC(=O)NCCOCCOCC(N)=O [Peptide P3-H] (Ac-CLQLDPETGECL-NH2; linker 1-11 via X3) | – | – | – | – | 0.00073 s⁻¹ | 160000 M⁻¹ s⁻¹ | 2 ± 1.6 nM | 4 nM and 4.5 nM | > 10000 nM
4 | CCOC(=O)CN(C)c1nc2cc(n1)CCSC[C@@H](C(=O)N[C@@H](CC(C)C)C(N)=O)NC(=O)[C@H](CCC(=O)OC)NC(=O)CNC(=O)[C@H]([C@@H](C)O)NC(=O)[C@H](CCC(=O)O)NC(=O)[C@@H]1CCCN1C(=O)[C@H](CC(=O)OC)NC(=O)[C@H](CC(C)C)NC(=O)[C@H](CCC(N)=O)NC(=O)[C@H](CC(C)C)NC(=O)[C@@H](NC(C)=O)CSCC2 [Peptide P4-F] (Ac-CLQLD(OMe)PETGE(OMe)CL-NH2; linker 1-11 via X4; N-terminus assumed) | – | – | – | – | 0.049 s⁻¹ | 58000 M⁻¹ s⁻¹ | – | – | –
5 | CCOC(=O)CN(C)c1nc2cc(n1)CCSC[C@@H](C(=O)N[C@@H](CC(C)C)C(N)=O)NC(=O)[C@H](CCC(=O)O)NC(=O)CNC(=O)[C@H]([C@@H](C)O)NC(=O)[C@H](CCC(=O)OC)NC(=O)[C@@H]1CCCN1C(=O)[C@H](CC(=O)OC)NC(=O)[C@H](CC(C)C)NC(=O)[C@H](CCC(N)=O)NC(=O)[C@H](CC(C)C)NC(=O)[C@@H](NC(C)=O)CSCC2 [Peptide P5-F] (Ac-CLQLD(OMe)PE(OMe)TGECL-NH2; linker 1-11 via X4) | – | – | – | – | 0.01 s⁻¹ | 3600 M⁻¹ s⁻¹ | – | – | –
6 | CCOC(=O)CN(C)c1nc2cc(n1)CCSC[C@@H](C(=O)N[C@@H](CC(C)C)C(N)=O)NC(=O)[C@H](CCC(=O)OC)NC(=O)CNC(=O)[C@H]([C@@H](C)O)NC(=O)[C@H](CCC(=O)OC)NC(=O)[C@@H]1CCCN1C(=O)[C@H](CC(=O)O)NC(=O)[C@H](CC(C)C)NC(=O)[C@H](CCC(N)=O)NC(=O)[C@H](CC(C)C)NC(=O)[C@@H](NC(C)=O)CSCC2 [Peptide P6-F] (Ac-CLQLDPE(OMe)TGE(OMe)CL-NH2; linker 1-11 via X4; N-terminus assumed) | – | – | – | – | 4.6 s⁻¹ | 3.8e+06 M⁻¹ s⁻¹ | – | – | –
7 | CCOC(=O)CN(C)c1nc2cc(n1)CCSC[C@@H](C(=O)N[C@@H](CC(C)C)C(N)=O)NC(=O)[C@H](CCC(=O)OC)NC(=O)CNC(=O)[C@H]([C@@H](C)O)NC(=O)[C@H](CCC(=O)OC)NC(=O)[C@@H]1CCCN1C(=O)[C@H](CC(=O)OC)NC(=O)[C@H](CC(C)C)NC(=O)[C@H](CCC(N)=O)NC(=O)[C@H](CC(C)C)NC(=O)[C@@H](NC(C)=O)CSCC2 [Peptide P7-F] (Ac-CLQLD(OMe)PE(OMe)TGE(OMe)CL-NH2; linker 1-11 via X4) | – | – | – | – | 0.0066 s⁻¹ | 2100 M⁻¹ s⁻¹ | 693 ± 1.3 nM | 2950 ± 1.8 nM | > 10000 nM
8 | CCOC(=O)CN(C)c1nc2cc(n1)CCSC[C@@H](C(=O)N[C@@H](CC(C)C)C(N)=O)NC(=O)[C@H](CCC(=O)O)NC(=O)CNC(=O)[C@H]([C@@H](C)O)NC(=O)[C@H](CCC(=O)O)NC(=O)[C@@H]1CCCN1C(=O)[C@H](CC(=O)O)NC(=O)[C@@H](NC(C)=O)CSCC2 [Peptide P8-F] | – | – | – | – | 0.016 s⁻¹ | 150000 M⁻¹ s⁻¹ | 6.8 ± 1.2 nM | 100 ± 1 nM | > 10000 nM
